## Ab-95 light chain CDR variants: yeast mating affinities

Source: Engelhart et al. 2022 (doi:10.1038/s41597-022-01779-4), MIT Lincoln Laboratory and A-Alpha Bio; data file from the FLAb repository.

Target peptide (SARS-CoV-2 spike, HR2 region): PDVDLGDISGINAS

Parent: Ab-95, a human scFv built as VH, three GGGGS repeats, VL. Only the CDRs of the light chain vary.
VH: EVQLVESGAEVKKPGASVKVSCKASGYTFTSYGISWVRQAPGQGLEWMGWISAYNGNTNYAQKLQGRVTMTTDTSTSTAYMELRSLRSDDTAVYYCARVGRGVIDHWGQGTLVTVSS
VL: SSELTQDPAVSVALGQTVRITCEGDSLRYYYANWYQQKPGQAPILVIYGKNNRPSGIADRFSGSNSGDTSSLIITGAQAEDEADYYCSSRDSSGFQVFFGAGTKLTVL

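Variants in AAYL52 differ from the parent at up to three CDR positions; double and triple changes were sampled at random. AlphaSeq pools MATa yeast showing the antibodies with MATalpha yeast showing the peptide. Pairs that bind mate more often; barcode pairs of the diploids are counted by sequencing. Each replicate has its own calibration line, from reference interactions of the BCL2 family. The assay was run in three technical replicates.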

Each variant is given by its three light chain CDRs, as the data file delimits them; those of the parent are EGDSLRYYYAN, GKNNRPS, SSRDSSGFQVF.
Each Kd is an estimate from the mating assay, the geometric mean of the replicates in which the pair was seen; lower is stronger.
"nd" means that the variant was in the library but no mating with the target was seen in any replicate; the authors take this as a sign of poor binding, and no number exists.
Three control strains display no target. For library AAYL52, 28% of the pairings with them gave a signal, with a median of 8.2 µM and one signal in twenty below 800 nM, so weak values seen in few replicates may be background.

Kd	replicates with signal	CDR-L1	CDR-L2	CDR-L3
4.1 µM	1/3	WGDSLRYYYAN	GCNRRPS	SSRDSSGFQVF
3.9 µM	2/3	NGDSLDYYYAN	GKNDRPS	SSRDSSGFQVF
33 µM	1/3	EGDSLRYYYAN	MKNNRPS	SSRDRSGFQVA
18 µM	2/3	EGDSLRYYYAN	GKNNRPS	SSGFSSGFQVF
1.6 µM	3/3	EDDSLRYYYIN	GKNNRPS	SLRDSSGFQVF
nd	0/3	EGMSLYYYYAN	GKNNRPS	SSPDSSGFQVF
4.7 µM	1/3	EEDSLRYYYAN	YKPNRPS	SSRDSSGFQVF
150 nM	3/3	EGDSLRYYYAN	GKNNRPS	SSRISSHFQVF
nd	0/3	EGDSLIYYYAN	GKHNRMS	SSRDSSGFQVF
2.7 µM	3/3	EGTDLRYYYAN	GKENRPS	SSRDSSGFQVF
14 µM	3/3	EGDSLRYYYWN	GKNNNPS	SSRDSSGFLVF
2.5 µM	3/3	EGDSLFYYYPN	GKNNRPS	SSRDSSGFQVE
24 µM	3/3	EGDSLRYYYAN	GKNNGPS	SFRDSSGFMVF
nd	0/3	EGDSLRYYYTN	SKNNRPS	SSRDSSGFQVF
1.5 µM	1/3	EGDSLRYVYWN	NKNNRPS	SSRDSSGFQVF
15 µM	3/3	ECDSLRYQYAE	GKNNRPS	SSRDSSGFQVF
150 nM	3/3	EGDSLNYYYAN	GKNNRPS	SSRDYSGRQVF
850 nM	3/3	EGDSLRYYYAN	GKNNRPS	SSRDVNGFQSF
7.2 µM	3/3	EGDSLCYYHAN	HKNNRPS	SSRDSSGFQVF
600 nM	3/3	EGDSLRYYYAN	GKNNRPS	QMRDSSGFQVF
110 µM	2/3	EGDSDRYYYAN	GKLNRPS	SSRDSSGIQVF
nd	0/3	CGDSLRYYYAN	GKNNRPS	SSWDSSGQQVF
13 µM	2/3	EGNSLWYYYAN	GKNNRPS	SSRWSSGFQVF
nd	0/3	EGDSLRYYYAN	LKNNRTS	SSLDSSGFQVF
72 nM	3/3	EGDSLTYYYAN	GKNNRPD	SGRDSSGFQVF
37 µM	1/3	EGDSLRYYYAP	RKNNRPS	SSRDSSGFQFF
1.6 µM	2/3	EGDSFRFYYAN	GKNNRPS	SSRDSSGFQVF
1.3 µM	1/3	EGDKLRYYYAN	GKNNRPS	MSRDSSGFQVF
7.3 µM	3/3	EGDVERYYYAN	GGNNRPS	SSRDSSGFQVF
nd	0/3	EGDSLRYYYAN	GKNNFPS	SSQDSSGFQVF
4.9 µM	3/3	EIDSLRYYYAN	GKNERPS	SSRDSSAFQVF
110 nM	3/3	EGDSLRYYYAN	GKNNRPS	SSRGSVGFQSF
2.0 µM	1/3	EGDSLRYYVAN	GKNNRPS	SSRMSSGFQVF
120 µM	1/3	EGDSSRYYYAN	GKNNRSS	ESRDSSGFQVF
99 µM	1/3	EGDSLREYYAI	GKNNCPS	SSRDSSGFQVF
31 µM	2/3	EGDSLRYYYAN	GKNNPPS	SIRDSSGFQVF
78 nM	3/3	EGDSLRYVYAN	GKNNRPS	SSRDVSGFQVF
4.0 µM	3/3	EGDSLRYYYAN	GKNWRPS	SSADSSRFQVF
8.9 µM	1/3	EGDSLRYYYAN	LMNNRPS	SSRDSSGFQVW
12 µM	3/3	EGSSLRYYYAN	GFNNRAS	SSRDSSGFQVF
nd	0/3	EGDSLRYYYAN	GKMQRPS	SSRDSSGFKVF
23 nM	3/3	EGDSLRYNYAN	GKNNGPS	SSRDSSGFQVF
2.7 µM	3/3	EGDSLRYYWAN	GKNNRPS	SRRDSSPFQVF
8.2 µM	3/3	EGDSLRVYYAN	GKNNRPS	SSRDSSGFDEF
nd	0/3	EGDSLRYIYAN	GKNNRPS	SSRDSSHFSVF
nd	0/3	EGDSLRMYKAN	GKNNRPS	SSRDSSGFQTF
19 nM	3/3	EGDSLRSYEMN	GKNNRPS	SSRDSSGFQVF
71 nM	3/3	EGDSLRQGYAN	GKNNNPS	SSRDSSGFQVF
120 nM	3/3	DGDSLRFYQAN	GKNNRPS	SSRDSSGFQVF
nd	0/3	EGESLRSYYAN	CKNNRPS	SSRDSSGFQVF
44 µM	1/3	EGGSLRYYYAW	GKNNRPS	SRRDSSGFQVF
370 nM	3/3	EGKSLRYYYAN	GKNNTPS	SSRDSSLFQVF
210 nM	3/3	EGDSLRYVYAN	GKNNRPS	HCRDSSGFQVF
nd	0/3	EGDSLRLYYAN	GKNNRPS	SSFDSSGFQIF
4.7 µM	2/3	EGDILRYYYAN	GNNNRPS	SHRDSSGFQVF
480 nM	3/3	EEDSLRPYYAN	GKNNRPA	SSRDSSGFQVF
6.9 µM	1/3	EGDSLRYYYVN	GKNNLPS	SSRSSSGFQVF
nd	0/3	EKDPLRYYYAN	GKNNRPS	SSRNSSGFQVF
140 nM	3/3	EGDSLQYRYAN	GKNNRPS	SSRDGSGFQVF
29 nM	3/3	EGDSKRYQYAN	GKNNRPS	SSRDSSGFQVF
1.1 µM	3/3	EGDSLRYYYAN	GKNNRPS	SWRDSSPAQVF
15 µM	2/3	EGDALRYYYAN	GKNNAPS	SSRDSKGFQVF
1.8 µM	3/3	EGDSLCYYYAN	GKNNRGS	SSRDSSGFQEF
65 nM	3/3	EGDSLWYTYAN	GKNNRPS	SSRDSSGFQVG
27 µM	1/3	EGDSYRYYYAN	GNNNRPS	SSRPSSGFQVF
nd	0/3	EGDSLRYYYAN	GKNKDPS	SSRYSSGFQVF
4.6 µM	2/3	EGDLLAYYYAN	GKNNRPS	SSRDSHGFQVF
1.2 µM	3/3	EGDSLRYYYAN	GKQNRPS	ASRDSSGFQVY
4.5 nM	3/3	EGDSLRYGYAN	GKQNRPS	SSRDISGFQVF
280 nM	3/3	EGDNLRYRYAN	GKNNRPS	SSRDSSGKQVF
12 nM	3/3	QGDSLNYYYNN	GKNNRPS	SSRDSSGFQVF
23 µM	1/3	EGDSLRYYYAC	GKNYRPE	SSRDSSGFQVF
470 nM	2/3	EGDSLNYYYAN	GENNNPS	SSRDSSGFQVF
nd	0/3	EGDYLRYYYAG	GKNNSPS	SSRDSSGFQVF
45 µM	2/3	EMDSLRYYYAE	GKNNRPS	SYRDSSGFQVF